{
  "source": "patent US20080287478A1",
  "about": "(priority 2003, published 2008)",
  "key": {"male NMRI mice": {"tested_on": "male NMRI mice", "conditions": "mouse, in vivo, iv"}, "[1]": {"conditions": "rat, in vivo"}},
  "data": [
    {"substance": "cis-(8-(4-Isopropyl-cyclohexyl)-1-phenyl-1,3,8-triaza-spiro[4.5]decan-4-one)-acetic acid [Compound 11]", "values": [
      {"measurement": "CNS grid shock* (Minimal effective dose nmol/kg)", "setting": "male NMRI mice", "value": ">10000", "unit": "nmol/kg"},
      {"measurement": "T½ min (half-life)", "setting": "[1]", "value": 25, "unit": "min"}
    ]}
  ]
}
